Results published in patent US20050042624A1, “Tumor antigen” (Kyogo ITOH, priority 2001, published 2005).

Test system: T2 cell pulsed with peptide
Assay: 51Cr release assay, pooled OK-CTLd sublines against peptide-pulsed T2 cells
Details: E/T ratio of 10, 20, and 40; 6 h
Protocol: OK-CTLd sublines were pooled to use as effector cells, and cytotoxicity against target cells was examined by the ^51Cr release assay. […] Effector cells and target cells were mixed each other at an E/T ratio of 10, 20, and 40, and then incubated for 6 h, followed by measuring a radioactivity of ^51Cr released in the culture supernatant.

SMILES: CC(C)C[C@H](NC(=O)[C@@H](NC(=O)[C@H](C)NC(=O)[C@@H](NC(=O)[C@@H](NC(=O)[C@H](CC(N)=O)NC(=O)[C@H](Cc1ccc(O)cc1)NC(=O)[C@H](CC(C)C)NC(=O)[C@@H](N)CO)[C@@H](C)O)C(C)C)[C@@H](C)O)C(=O)O [HIV, SLYNTVATL, reference compound]
- cytotoxicity of pooled OK-CTLd subline against peptide-pulsed target cells: did not show any cytotoxicity
